Experimental data from paper PMC13070491, “Single-nucleus transcriptomics, pharmacokinetics, and pharmacodynamics of CDK4/6 and mTOR inhibition in a Phase 0/1 trial of recurrent high-grade glioma” (Neuro-Oncology, 2025).

System: GB126, GB239 and GB86 patient-derived cell lines
Assay: In vitro single-cell RNA sequencing, analyses across the cell lines (pseudobulk differential gene expression, GSEA, non-cycling cells)
Type: cell-based, human
Protocol: Patient-derived glioma stem cell lines (GSCs; GB126, GB86, and GB239) were established from resected GBM tumor tissue. Cell lines were genetically profiled for mutations and copy number aberrations using the IvySeq custom gene panel. […] GB239 was derived from a tumor sample included in this Phase 0 trial (tumor sample: 100-0039). All human GSCs were cultured as described previously.[12]
Following the fifth day of drug exposure, cells were harvested, cryopreserved to be processed at a later point, or immediately processed for single-cell RNA sequencing (10x Genomics, 3’ version 3). The single-cell RNA sequencing data were then processed via cellranger count and Seurat. Briefly, cells were filtered out based on the following criteria: minimum number of genes detected >500 and <10 000 with a maximum percentage of mitochondrial genes set to 10%. Statistical assessment was made between the malignant proportions of each cell state using a 2-sided paired t-test.
Descriptive statistics of the clinical data are included in Table 1. Comparisons between groups were conducted using a 2-sided or paired 2-sided t-test, where indicated. P < .05 was considered significant. Multiple hypothesis test corrections (ie, false discovery rate correction) were applied for snRNAseq pseudobulk differential expression analysis.

CN(C)C(=O)c1cc2cnc(Nc3ccc(N4CCNCC4)cn3)nc2n1C1CCCC1 [ribo]
log2FoldChange (feature AL049749.1, ribociclib versus control (DMSO)): 1.309 | log2FoldChange (feature AL049775.1, ribociclib versus control (DMSO)): 1.265 | log2FoldChange (feature AL079307.1, ribociclib versus control (DMSO)): 1.03 | log2FoldChange (feature AL117190.2, ribociclib versus control (DMSO)): 1.288 | log2FoldChange (feature AL121894.3, ribociclib versus control (DMSO)): 1.155 | log2FoldChange (feature AL121956.4, ribociclib versus control (DMSO)): 1.24 | log2FoldChange (feature AL133268.4, ribociclib versus control (DMSO)): 1.034 | log2FoldChange (feature AL139231.1, ribociclib versus control (DMSO)): 1.099 | log2FoldChange (feature AL161851.2, ribociclib versus control (DMSO)): 1.142 | log2FoldChange (feature AL161938.1, ribociclib versus control (DMSO)): 1.26 | log2FoldChange (feature AL162253.1, ribociclib versus control (DMSO)): 1.134 | log2FoldChange (feature AL162727.2, ribociclib versus control (DMSO)): 1.236 | log2FoldChange (feature AL353626.1, ribociclib versus control (DMSO)): 1.253 | log2FoldChange (feature AL353759.1, ribociclib versus control (DMSO)): 1.031 | log2FoldChange (feature AL355612.1, ribociclib versus control (DMSO)): 1.03 | log2FoldChange (feature AL355835.1, ribociclib versus control (DMSO)): 1.0289 | log2FoldChange (feature AL356108.1, ribociclib versus control (DMSO)): 1.29 | log2FoldChange (feature AL356124.1, ribociclib versus control (DMSO)): 1.29 | log2FoldChange (feature AL359220.1, ribociclib versus control (DMSO)): 1.062 | log2FoldChange (feature AL359313.1, ribociclib versus control (DMSO)): 1.2467 | log2FoldChange (feature AL392023.2, ribociclib versus control (DMSO)): 1.316 | log2FoldChange (feature AL392024.1, ribociclib versus control (DMSO)): 1.047 | log2FoldChange (feature AL449983.1, ribociclib versus control (DMSO)): 1.152 | log2FoldChange (feature AL591686.2, ribociclib versus control (DMSO)): 1.253 | log2FoldChange (feature AL592424.1, ribociclib versus control (DMSO)): 1.08 | log2FoldChange (feature AL596218.1, ribociclib versus control (DMSO)): 1.151 | log2FoldChange (feature AL603910.1, ribociclib versus control (DMSO)): 1.184 | log2FoldChange (feature ANGPT1, ribociclib versus control (DMSO)): 1.06 | log2FoldChange (feature ANXA10, ribociclib versus control (DMSO)): 1.251 | log2FoldChange (feature AP000265.1, ribociclib versus control (DMSO)): 1.037 | log2FoldChange (feature AP000357.2, ribociclib versus control (DMSO)): 1.309 | log2FoldChange (feature AP000542.2, ribociclib versus control (DMSO)): 1.273 | log2FoldChange (feature AP001407.1, ribociclib versus control (DMSO)): 1.218 | log2FoldChange (feature LY96, ribociclib versus control (DMSO)): 1.105 | log2FoldChange (feature MALL, ribociclib versus control (DMSO)): 1.189 | log2FoldChange (feature MATN2, ribociclib versus control (DMSO)): 1.2 | log2FoldChange (feature MEG3, ribociclib versus control (DMSO)): 1.185 | log2FoldChange (feature METTL7B, ribociclib versus control (DMSO)): 1.1473 | log2FoldChange (feature MIAT, ribociclib versus control (DMSO)): 1.0319 | log2FoldChange (feature MIR2117HG, ribociclib versus control (DMSO)): 1.151 | log2FoldChange (feature MMP15, ribociclib versus control (DMSO)): 1.023 | log2FoldChange (feature MOG, ribociclib versus control (DMSO)): 1.104 | log2FoldChange (feature MRO, ribociclib versus control (DMSO)): 1.154 | log2FoldChange (feature MRVI1, ribociclib versus control (DMSO)): 1.161 | log2FoldChange (feature NAALADL2-AS1, ribociclib versus control (DMSO)): 1.113 | log2FoldChange (feature NAALADL2-AS2, ribociclib versus control (DMSO)): 1.246 | log2FoldChange (feature NFAM1, ribociclib versus control (DMSO)): 1.039 | log2FoldChange (feature NPR1, ribociclib versus control (DMSO)): 1.293 | log2FoldChange (feature NR1H4, ribociclib versus control (DMSO)): 1.051 | log2FoldChange (feature NTSR2, ribociclib versus control (DMSO)): 1.241 | log2FoldChange (feature NXPE1, ribociclib versus control (DMSO)): 1.287 | log2FoldChange (feature NYAP2, ribociclib versus control (DMSO)): 1.257 | log2FoldChange (feature OAS1, ribociclib versus control (DMSO)): 1.149 | log2FoldChange (feature P2RX6, ribociclib versus control (DMSO)): 1.241 | log2FoldChange (feature PACRG-AS1, ribociclib versus control (DMSO)): 1.037 | log2FoldChange (feature PACRG-AS3, ribociclib versus control (DMSO)): 1.079 | log2FoldChange (feature PBXIP1, ribociclib versus control (DMSO)): 1.078 | log2FoldChange (feature PCAT4, ribociclib versus control (DMSO)): 1.019 | log2FoldChange (feature PCAT6, ribociclib versus control (DMSO)): 1.133 | log2FoldChange (feature PCDH9-AS2, ribociclib versus control (DMSO)): 1.129 | log2FoldChange (feature PCDH9-AS3, ribociclib versus control (DMSO)): 1.15 | log2FoldChange (feature PCDHB12, ribociclib versus control (DMSO)): 1.05 | log2FoldChange (feature PMP2, ribociclib versus control (DMSO)): 1.189 | log2FoldChange (feature POLN, ribociclib versus control (DMSO)): 1.055 | log2FoldChange (feature PON1, ribociclib versus control (DMSO)): 1.145 | log2FoldChange (feature PSORS1C1, ribociclib versus control (DMSO)): 1.056 | log2FoldChange (feature PTPN7, ribociclib versus control (DMSO)): 1.179 | log2FoldChange (feature PTPN20, ribociclib versus control (DMSO)): 1.021 | log2FoldChange (feature RGS11, ribociclib versus control (DMSO)): 1.045 | log2FoldChange (feature RSPO4, ribociclib versus control (DMSO)): 1.105 | log2FoldChange (feature RUFY4, ribociclib versus control (DMSO)): 1.322 | log2FoldChange (feature SAMD9L, ribociclib versus control (DMSO)): 1.086 | log2FoldChange (feature SCML4, ribociclib versus control (DMSO)): 1.059 | log2FoldChange (feature SCN2B, ribociclib versus control (DMSO)): 1.253 | log2FoldChange (feature SCN3A, ribociclib versus control (DMSO)): 1.19 | log2FoldChange (feature SEMA4A, ribociclib versus control (DMSO)): 1.083 | log2FoldChange (feature SEMG1, ribociclib versus control (DMSO)): 1.1288 | log2FoldChange (feature SERPINI1, ribociclib versus control (DMSO)): 1.0367 | log2FoldChange (feature SH2D6, ribociclib versus control (DMSO)): 1.22 | log2FoldChange (feature SLC1A1, ribociclib versus control (DMSO)): 1.117 | log2FoldChange (feature SLC13A1, ribociclib versus control (DMSO)): 1.102 | log2FoldChange (feature SLC18A1, ribociclib versus control (DMSO)): 1.2151 | log2FoldChange (feature SLC43A2, ribociclib versus control (DMSO)): 1.12 | log2FoldChange (feature SLC46A2, ribociclib versus control (DMSO)): 1.146 | log2FoldChange (feature SP140L, ribociclib versus control (DMSO)): 1.188 | log2FoldChange (feature SRPK3, ribociclib versus control (DMSO)): 1.05 | log2FoldChange (feature STAT6, ribociclib versus control (DMSO)): 1.158 | log2FoldChange (feature STK32A, ribociclib versus control (DMSO)): 1.1342 | log2FoldChange (feature STRA8, ribociclib versus control (DMSO)): 1.149 | log2FoldChange (feature SULT1C4, ribociclib versus control (DMSO)): 1.049 | log2FoldChange (feature TDO2, ribociclib versus control (DMSO)): 1.0307 | log2FoldChange (feature TGM2, ribociclib versus control (DMSO)): 1.091 | log2FoldChange (feature THBS2, ribociclib versus control (DMSO)): 1.159 | log2FoldChange (feature TIE1, ribociclib versus control (DMSO)): 1.297 | log2FoldChange (feature TLR7, ribociclib versus control (DMSO)): 1.197 | log2FoldChange (feature TLR8-AS1, ribociclib versus control (DMSO)): 1.1345 | log2FoldChange (feature TMEM246-AS1, ribociclib versus control (DMSO)): 1.08 | log2FoldChange (feature TMOD1, ribociclib versus control (DMSO)): 1.051 | log2FoldChange (feature TMPRSS11A, ribociclib versus control (DMSO)): 1.092
